# According to patent EP4843570A1, “USE OF AMINO ACID CHELATED ZINC IN IMMUNOMODULATION AND TREATING AUTOIMMUNE DISEASES” (dated 2026):
# Legend:
# [1] = test system: mouse bone marrow dendritic cells (BMDC); test: ELISA analysis of IL12P70 secretion in BMDC medium; conditions: text statement for the groups (all concentrations), 48 hours
# CIA rat = test: Collagen-induced arthritis (CIA) rat model: arthritis severity score and paw volume/weight percentage; conditions: for arthritis severity after Day 17: compared to the CIA group
# [2] = Fig. 3, after administration from Day 17, compared to the CIA group
# [3] = Fig. 4, Day 24, compared to the untreated CIA rats (p value<0.05)
Compound,IL12P70 in the media [1],"summed average scores of arthritis severity of both paws (CIA rat; Day0, before administration (administration from Day 17))","summed average scores of arthritis severity of both paws (CIA rat; Day3, before administration (administration from Day 17))","summed average scores of arthritis severity of both paws (CIA rat; Day7, before administration (administration from Day 17))","summed average scores of arthritis severity of both paws (CIA rat; Day10, before administration (administration from Day 17))",weight percentages of the rats' paws (CIA rat; [2]),weight percentages of the rats' paws (CIA rat; [3]),arthritis severity after Day 17 (CIA rat)
glycine-chelated zinc,not detected,0,0,0,0,gradually decreased,significantly decreased,"slower progression, or even reduction"
Zinc sulfate,not detected,–,–,–,–,–,–,–
CN(Cc1cnc2nc(N)nc(N)c2n1)c1ccc(C(=O)N[C@@H](CCC(=O)O)C(=O)O)cc1,–,–,–,–,–,gradually decreased,significantly decreased,"slower progression, or even reduction"
